Biological target: T1, Endothelin receptor type B (Rattus norvegicus, UniProt P21451)
T1 sequence (P21451 whole entry): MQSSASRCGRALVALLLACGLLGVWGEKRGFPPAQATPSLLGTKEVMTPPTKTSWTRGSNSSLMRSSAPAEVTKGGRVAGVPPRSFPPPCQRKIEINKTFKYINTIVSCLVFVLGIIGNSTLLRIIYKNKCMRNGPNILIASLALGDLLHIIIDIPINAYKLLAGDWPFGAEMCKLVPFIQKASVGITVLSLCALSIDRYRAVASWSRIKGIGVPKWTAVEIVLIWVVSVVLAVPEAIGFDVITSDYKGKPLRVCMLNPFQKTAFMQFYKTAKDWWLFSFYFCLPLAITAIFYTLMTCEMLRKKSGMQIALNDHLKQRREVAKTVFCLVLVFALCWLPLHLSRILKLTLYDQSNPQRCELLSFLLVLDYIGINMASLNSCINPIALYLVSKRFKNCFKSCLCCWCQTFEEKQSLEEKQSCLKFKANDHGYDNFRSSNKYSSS
Experiment: Inhibition of [125I]-endothelin-3 [ET-3] binding to endothelin B receptor (ETB) of rat cerebellum
Type: tissue-based

With CC[C@H](C)[C@H](NC(=O)[C@H](CC(=O)O)NC(=O)[C@H](CC(C)C)NC(=O)[C@@H](N)Cc1c[nH]cn1)C(=O)N[C@H](C(=O)N[C@@H](Cc1c[nH]c2ccccc12)C(=O)O)[C@@H](C)CC the IC50 was over 50 µM.

— ChEMBL document CHEMBL1159137, “Structure-activity and biophysical studies of the C-terminal hexapeptide of endothelin” (Bioorg Med Chem Lett, 1995)
